ChEMBL document CHEMBL3271947, “Improved delivery through biological membranes. 3. Delivery of N-methylpyridinium-2-carbaldoxime chloride through the blood-brain barrier in its dihydropyridine pro-drug form” (1976)

Columns and labels:
[1] = test system: Mus musculus; experiment: Reactivation of AChE in ICR mouse brain at 40 mg/kg, iv administered 15 mins post DFP challenge measured after 90 mins by Ellman method relative to control; conditions: strain ICR
[2] = test system: Mus musculus; experiment: Reactivation of AChE in ICR mouse brain at 50 mg/kg, iv administered 15 mins post DFP challenge measured after 90 mins by Ellman method relative to control; conditions: strain ICR
[3] = test system: Mus musculus; experiment: Reactivation of AChE in ICR mouse brain at 30 mg/kg, iv administered 15 mins post DFP challenge measured after 90 mins by Ellman method relative to control; conditions: strain ICR
[4] = test system: Brain; experiment: Drug uptake in ICR white mouse whole brain at 5 mg/kg, iv after 15 mins by liquid scintillation counting analysis; conditions: in vivo, 0.25 h, strain ICR
[5] = test system: Brain; experiment: Prodrug conversion in ICR white mouse brain homogenates assessed as 2-PAM at 5 mg/kg, iv after 15 mins by radiochromatography; conditions: in vivo, 0.25 h, strain ICR
[6] = test system: Mus musculus; experiment: Reactivation of AChE in ICR mouse brain at 20 mg/kg, iv administered 15 mins post DFP challenge measured after 90 mins by Ellman method relative to control; conditions: strain ICR

| SMILES | Activity [1] [%] | Activity [2] [%] | Activity [3] [%] | Drug uptake [4] [mg%] | Drug metabolism [5] | Activity [6] [%] |
| --- | --- | --- | --- | --- | --- | --- |
| C[n+]1ccccc1/C=N/O.[Cl-] | 5.93 | 12.1 | 0 | – | – | – |
| C[n+]1ccccc1/C=N/O.[I-] | – | – | – | 0.398 | – | – |
| CN1CC=CC=C1/C=N/O.Cl | 41 | 69 | 21.6 | 5.03 | metabolite_detected | 18 |
